In series [1] the test system is guinea pig penis. Nature of the series: Topical application of nitrates to the penis of guinea pigs (change in penile volume). The note with it: neat; for AUC / Peak Effect (% change): guinea pig penile volume; for AUC, % of 1,5-PDN / Peak Effect, % of 1,5-PDN: relative to 1,5-PDN. It counts as in vivo, male outbred Hartley guinea pigs. The source says:
Sixteen (16) male outbred Hartley guinea pigs were weighed and placed into treatment groups as follows:
The animals were placed in dorsal recumbency and held in place by restraints. The penis was extruded from the prepuce. Care was taken to not manipulate the penis. Length and diameter measurements were made using digital calipers. The length measurement was taken from the prepuce to the tip of the glans when the penis was extended. The diameter was taken 0.5 cm proximally from the tip of the glans.
The appropriate amount of test material was applied with a Wiretrol™ pipette to the base of the exposed penis. When application was complete, a timer was started. Measurements were taken at 0, 1, 2, 5, 10 and 15 minutes after application or until detumescence was observed.
The same procedure was followed to topically apply a series of various other nitrate and dinitrate compounds (in neat form) to the penis of guinea pigs. A summary of the activity of this series of nitrate compounds is shown in Table 2, with the AUC and peak effect values for each compound compared to 1,5-PDN.
The same test procedure was followed as in Example 3, but applying a 10% solution of NTG to the penis in varying dosage amounts.
Twelve (12) male Hartley guinea pigs were placed into treatment groups as follows: […]

Series [2] has as its system rat aortic rings. Put plainly: Vascular reactivity: relaxation of rat aortic rings precontracted with phenylephrine. It counts as cell-based, Sprague-Dawley rats. The note with it: FIG. 10, rat aortic rings. The source says:
Aortic rings (2-3 mm wide) from Sprague-Dawley rats were isolated and placed in a tissue bath. The vessels were precontracted with small amounts of phenylephrine. A transducer connected to a recorder was used to assess changes in tension. As noted in FIG. 10, there was no difference in vascular relaxation, either in potency or efficacy, between 1,5-PDN and 1,5-pentane dinitrite.
In a similar experiment, there was no appreciable difference in the vascular relaxation induced by NTG and 1,5-PDN (FIG. 11).

The test system of series [3] is penis. The note with it: topical; cited from earlier work.

As for `CC(C)(C)CO[N+](=O)[O-]`, in series [1], the “Time of Peak Effect” value is given as 2 min, the AUC is reported as 376 and the “Peak Effect (% change)” value was found to be 45.2 % change.

For 2-Methyl-1-propene-3-nitrate, in series [1], the “Time of Peak Effect” value is 5 min; the AUC is 265; the “Peak Effect (% change)” value was 28.6 % change; the “AUC, % of 1,5-PDN” value is listed as 60%. In series [1], the “Peak Effect, % of 1,5-PDN” value was 74%.

As to 1-Pentane nitrate, in series [1], the “Time of Peak Effect” value is 2 min; the AUC is 234; the “Peak Effect (% change)” value was found to be 25.9 % change; the “AUC, % of 1,5-PDN” value came to 53%. In addition, in series [1], the “Peak Effect, % of 1,5-PDN” value came to 67%.

`O=NOCCCCCON=O`: the “vascular relaxation, potency or efficacy: 1,5-PDN vs 1,5-pentane dinitrite” value in series [2] is given as “no difference in vascular relaxation, either in potency or efficacy”. For the same compound, in series [3], the “induction of erection” value is “effective in inducing erection” and the “side effects” value is given as “almost devoid of undesirable side effects caused by systemic vasodilation”.

Regarding `O=[N+]([O-])OCCCCCCO[N+](=O)[O-]`, in series [1], the “Time of Peak Effect” value is 5 min; the AUC was 349; the “Peak Effect (% change)” value is on record as 31.8 % change; the “AUC, % of 1,5-PDN” value was determined as 79%. In series [1], the “Peak Effect, % of 1,5-PDN” value came out at 82%.
